# Source: US8524696B2, “Water-soluble compositions of bioactive lipophilic compounds” (priority 1999, dated 2013)
# Tested on: spontaneously hypertensive rats (SHR)
# Test: Ischemia/reperfusion, middle cerebral artery occlusion model (MCAO), TTC staining
# Format: in vivo, rat
# Details: CoQ10 6 mg/kg intravenously after 60 min occlusion
structure (smiles),measurement,setting,value
"COC1=C(OC)C(=O)C(C/C=C(\C)CC/C=C(\C)CC/C=C(\C)CC/C=C(\C)CC/C=C(\C)CC/C=C(\C)CC/C=C(\C)CC/C=C(\C)CC/C=C(\C)CCC=C(C)C)=C(C)C1=O [CoQ10, Coenzyme Q10]","TTC formazan, Left brain hemisphere",1 day after reperfusion,1206.0 +/− 50.2 OD/g of dry brain tissue
same,"TTC formazan, Right brain hemisphere",1 day after reperfusion,1200.0 +/− 19.2 OD/g of dry brain tissue
same,"TTC formazan, Left brain hemisphere",2 days after reperfusion,1084.9 +/− 22.2 OD/g of dry brain tissue
same,"TTC formazan, Right brain hemisphere",2 days after reperfusion,1060.9 +/− 21.2 OD/g of dry brain tissue
